The structures appear in SMILES notation.

Sequences of proteins named here, by UniProt entry; tags and fusion partners are left off. A change or cut given only in a name is not applied to a line headed by its entry.
UniProt Q12809: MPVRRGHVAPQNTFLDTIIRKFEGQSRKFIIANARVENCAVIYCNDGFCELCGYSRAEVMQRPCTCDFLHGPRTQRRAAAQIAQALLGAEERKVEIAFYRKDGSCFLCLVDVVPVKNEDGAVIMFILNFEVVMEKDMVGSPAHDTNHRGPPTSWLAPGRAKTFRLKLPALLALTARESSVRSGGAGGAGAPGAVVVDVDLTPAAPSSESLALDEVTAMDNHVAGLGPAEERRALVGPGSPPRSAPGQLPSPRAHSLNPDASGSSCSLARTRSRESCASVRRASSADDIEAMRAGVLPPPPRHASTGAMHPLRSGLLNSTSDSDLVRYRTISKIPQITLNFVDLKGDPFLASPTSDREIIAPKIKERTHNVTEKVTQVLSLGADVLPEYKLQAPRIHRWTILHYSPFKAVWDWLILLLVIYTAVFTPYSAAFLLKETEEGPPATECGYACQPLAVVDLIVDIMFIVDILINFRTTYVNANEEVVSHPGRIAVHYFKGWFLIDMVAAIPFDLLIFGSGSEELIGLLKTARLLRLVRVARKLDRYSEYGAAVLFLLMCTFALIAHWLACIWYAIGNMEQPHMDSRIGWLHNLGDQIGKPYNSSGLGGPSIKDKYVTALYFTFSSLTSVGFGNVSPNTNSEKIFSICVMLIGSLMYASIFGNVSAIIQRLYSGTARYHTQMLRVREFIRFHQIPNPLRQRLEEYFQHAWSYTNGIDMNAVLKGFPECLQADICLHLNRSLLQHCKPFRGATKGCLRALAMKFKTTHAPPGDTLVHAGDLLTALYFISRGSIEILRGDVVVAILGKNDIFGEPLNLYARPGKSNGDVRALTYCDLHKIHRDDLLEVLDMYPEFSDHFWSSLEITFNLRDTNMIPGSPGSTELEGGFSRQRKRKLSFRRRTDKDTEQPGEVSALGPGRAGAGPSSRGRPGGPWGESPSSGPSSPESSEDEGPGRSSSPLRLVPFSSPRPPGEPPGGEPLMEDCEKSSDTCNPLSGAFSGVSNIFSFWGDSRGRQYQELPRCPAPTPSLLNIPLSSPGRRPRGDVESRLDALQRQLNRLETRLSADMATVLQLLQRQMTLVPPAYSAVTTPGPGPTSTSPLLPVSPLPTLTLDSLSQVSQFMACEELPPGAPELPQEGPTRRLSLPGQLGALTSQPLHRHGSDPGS

In this series the target is hERG potassium ion channels (Homo sapiens (Human), UniProt Q12809). The series can be described thus: hERG potassium current, whole cell patch clamp in HEK-293-hERG cells. As to conditions: 0.1 μM.

Consider `COc1cc(N)c(Cl)cc1C(=O)NC1CCN(CCCOc2ccc(F)cc2)CC1OC` (stereo not shown) [Cisapride], for which the “The inhibition rate on hERG current” value is given as 86.36%.

(Values after US20250064789A1, “KETOAMIDE DERIVATIVES AND PHARMACEUTICAL USES THEREOF” (priority 2022, published 2025).)
